Reference: EP2487171A1, “Dihydrobenzopyran, thiochroman, tetrahydroquinoleine and tetrahydronaphthalene derivatives and their use in anti-cancer therapy” (Université de Liège, priority 2011, dated 2012)

tested on: three Human Glioma Cell Lines; test: MTT colorimetric assay, mean over the three glioma cell lines; format: cell-based; conditions: mean of U373, T98G and Hs683, 72 hours (Table 1), read-out: IC50 (µM) In Vitro Growth Inhibitory Concentrations (MTT Colorimetric Assay) Mean ± SEM
Method: Table 2: Bioselectivity determined by dividing the IC50 obtained with glioma cell lines by the IC50 obtained with normal astrocytes. Bioselectivity was determined only for those compounds whose mean + SEM values on the three human glioma cell lines were ≤ 20 µM.

Structure (SMILES)	IC50
CC(C)(C)OC(=O)Nc1ccc2c(c1)C(NC(=O)Nc1c(Cl)cccc1C(F)(F)F)CC(C)(C)O2 (racemic) [Example 32, R/S-N-2-chloro-6-trifluoromethylphenyl-N'-(6-tert-butoxycarbonylamino-3,4-dihydro-2,2-dimethyl-2H-1-benzopyran-4-yl)urea]	62 ± 2 µM
CC(C)(C)OC(=O)Nc1ccc2c(c1)C(NC(=O)Nc1cccc(F)c1)CC(C)(C)O2 (racemic) [Example 19, R/S-N-3-fluorophenyl-N'-(6-tert-butoxycarbonylamino-3,4-dihydro-2,2-dimethyl-2H-1-benzopyran-4-yl)urea]	22 ± 2 µM
CC(C)(C)OC(=O)Nc1ccc2c(c1)C(NC(=O)Nc1cc(F)cc(F)c1)CC(C)(C)O2 (racemic) [Example 21, R/S-N-3,5-difluorophenyl-N'-(6-tert-butoxycarbonylamino-3,4-dihydro-2,2-dimethyl-2H-1-benzopyran-4-yl)urea]	9 ± 3 µM
CC(C)(C)OC(=O)Nc1ccc2c(c1)C(NC(=O)Nc1ccc(C#N)cc1)CC(C)(C)O2 (racemic) [Example 15, R/S-N-4-cyanophenyl-N'-(6-tert-butoxycarbonylamino-3,4-dihydro-2,2-dimethyl-2H-1-benzopyran-4-yl)urea]	18 ± 5 µM
CC(C)(C)OC(=O)Nc1ccc2c(c1)C(NC(=O)Nc1ccc(Br)cc1)CC(C)(C)O2 (racemic) [Example 34, R/S-N-4-bromophenyl-N'-(6-tert-butoxycarbonylamino-3,4-dihydro-2,2-dimethyl-2H-1-benzopyran-4-yl)urea]	21 ± 1 µM
CC(C)(C)OC(=O)Nc1ccc2c(c1)C(NC(=O)Nc1ccc(C#N)cc1)CCO2 (racemic) [Example 6, R/S-N-4-cyanophenyl-N'-(6-tert-butoxycarbonylamino-3,4-dihydro-2H-1-benzopyran-4-yl)urea]	41 ± 2 µM
CC(C)(C)OC(=O)Nc1ccc2c(c1)C(NC(=O)Nc1ccc(F)cc1)CC(C)(C)O2 (racemic) [Example 18, R/S-N-4-fluorophenyl-N'-(6-tert-butoxycarbonylamino-3,4-dihydro-2,2-dimethyl-2H-1-benzopyran-4-yl)urea]	33 ± 1 µM
CC(C)(C)OC(=O)Nc1ccc2c(c1)C(NC(=O)Nc1cccc([N+](=O)[O-])c1)CC(C)(C)O2 (racemic) [Example 23, R/S-N-3-nitrophenyl-N'-(6-tert-butoxycarbonylamino-3,4-dihydro-2,2-dimethyl-2H-1-benzopyran-4-yl)urea]	8 ± 4 µM
CC(C)(C)OC(=O)Nc1ccc2c(c1)C(NC(=O)Nc1ccccc1Cl)CCO2 (racemic) [Example 1, R/S-N-2-chlorophenyl-N'-(6-tert-butoxycarbonylamino-3,4-dihydro-2H-1-benzopyran-4-yl)urea]	24 ± 1 µM
CC(C)(C)OC(=O)Nc1ccc2c(c1)C(NC(=O)Nc1ccc(Cl)cc1C(F)(F)F)CC(C)(C)O2 (racemic) [Example 37, R/S-N-4-chloro-2-trifluoromethylphenyl-N'-(6-tert-butoxycarbonylamino-3,4-dihydro-2,2-dimethyl-2H-1-benzopyran-4-yl)urea]	34 ± 2 µM
CC(C)(C)OC(=O)Nc1ccc2c(c1)C(NC(=O)Nc1cccc(C#N)c1)CC(C)(C)O2 (racemic) [Example 14, R/S-N-3-cyanophenyl-N'-(6-tert-butoxycarbonylamino-3,4-dihydro-2,2-dimethyl-2H-1-benzopyran-4-yl)urea]	2 ± 1 µM
CC(C)(C)OC(=O)Nc1ccc2c(c1)C(NC(=O)Nc1ccccc1[N+](=O)[O-])CC(C)(C)O2 (racemic) [Example 27, R/S-N-2-nitrophenyl-N'-(6-tert-butoxycarbonylamino-3,4-dihydro-2,2-dimethyl-2H-1-benzopyran-4-yl)urea]	16 ± 3 µM
CC(C)(C)OC(=O)Nc1ccc2c(c1)C(NC(=O)Nc1cccc(Br)c1)CC(C)(C)O2 (racemic) [Example 20, R/S-N-3-bromophenyl-N'-(6-tert-butoxycarbonylamino-3,4-dihydro-2,2-dimethyl-2H-1-benzopyran-4-yl)urea]	22 ± 2 µM
CC(C)(C)OC(=O)Nc1ccc2c(c1)C(NC(=O)Nc1cccc(C#N)c1)CCO2 (racemic) [Example 5, R/S-N-3-cyanophenyl-N'-(6-tert-butoxycarbonylamino-3,4-dihydro-2H-1-benzopyran-4-yl)urea]	31 ± 4 µM
CC(C)(C)OC(=O)Nc1ccc2c(c1)C(NC(=O)Nc1ccc([N+](=O)[O-])cc1)CC(C)(C)O2 (racemic) [Example 22, R/S-N-4-nitrophenyl-N'-(6-tert-butoxycarbonylamino-3,4-dihydro-2,2-dimethyl-2H-1-benzopyran-4-yl)urea]	23 ± 2 µM
CC(C)(C)OC(=O)Nc1ccc2c(c1)C(NC(=O)Nc1ccc(Cl)cc1)CC(C)(C)O2 (racemic) [Example 17, R/S-N-4-chlorophenyl-N'-(6-tert-butoxycarbonylamino-3,4-dihydro-2,2-dimethyl-2H-1-benzopyran-4-yl)urea]	25 ± 1 µM
CC(C)(C)OC(=O)Nc1ccc2c(c1)C(NC(=O)Nc1ccc(C(F)(F)F)cc1Cl)CC(C)(C)O2 (racemic) [Example 30, R/S-N-2-chloro-4-trifluoromethylphenyl-N'-(6-tert-butoxycarbonylamino-3,4-dihydro-2,2-dimethyl-2H-1-benzopyran-4-yl)urea]	28 ± 3 µM
CC(C)(C)OC(=O)Nc1ccc2c(c1)C(NC(=O)Nc1cc(C(F)(F)F)ccc1Cl)CC(C)(C)O2 (racemic) [Example 31, R/S-N-2-chloro-5-trifluoromethylphenyl-N'-(6-tert-butoxycarbonylamino-3,4-dihydro-2,2-dimethyl-2H-1-benzopyran-4-yl)urea]	22 ± 8 µM
CC(C)(C)OC(=O)Nc1ccc2c(c1)C(NC(=O)Nc1cccc(Cl)c1)CC(C)(C)O2 (racemic) [Example 16, R/S-N-3-chlorophenyl-N'-(6-tert-butoxycarbonylamino-3,4-dihydro-2,2-dimethyl-2H-1-benzopyran-4-yl)urea]	17 ± 3 µM
CC(C)(C)OC(=O)Nc1ccc2c(c1)C(NC(=O)Nc1ccc(C(F)(F)F)cc1)CC(C)(C)O2 (racemic) [Example 24, R/S-N-4-trifluoromethylphenyl-N'-(6-tert-butoxycarbonylamino-3,4-dihydro-2,2-dimethyl-2H-1-benzopyran-4-yl)urea]	12 ± 1 µM
CC(C)(C)OC(=O)Nc1ccc2c(c1)C(NC(=O)Nc1cc(C(F)(F)F)cc(C(F)(F)F)c1)CC(C)(C)O2 (racemic) [Example 29, R/S-N-3,5-di(trifluoromethyl)phenyl-N'-(6-tert-butoxycarbonylamino-3,4-dihydro-2,2-dimethyl-2H-1-benzopyran-4-yl)urea]	4 ± 1 µM
CC(C)(C)OC(=O)Nc1ccc2c(c1)C(NC(=O)Nc1cccc(C(F)(F)F)c1)CC(C)(C)O2 (racemic) [Example 25, R/S-N-3-trifluoromethylphenyl-N'-(6-tert-butoxycarbonylamino-3,4-dihydro-2,2-dimethyl-2H-1-benzopyran-4-yl)urea]	13 ± 4 µM
CC(C)(C)OC(=O)Nc1ccc2c(c1)C(NC(=O)Nc1cc(Cl)cc(Cl)c1)CC(C)(C)O2 (racemic) [Example 26, R/S-N-3,5-dichlorophenyl-N'-(6-tert-butoxycarbonylamino-3,4-dihydro-2,2-dimethyl-2H-1-benzopyran-4-yl)urea]	9 ± 2 µM
CC(C)(C)OC(=O)Nc1ccc2c(c1)C(NC(=O)Nc1ccccc1Cl)CC(C)(C)O2 (racemic) [Example 35, R/S-N-2-chlorophenyl-N'-(6-tert-butoxycarbonylamino-3,4-dihydro-2,2-dimethyl-2H-1-benzopyran-4-yl)urea]	64 ± 19 µM
CC(C)(C)OC(=O)Nc1ccc2c(c1)C(NC(=O)Nc1ccccc1C#N)CC(C)(C)O2 (racemic) [Example 36, R/S-N-2-cyanophenyl-N'-(6-tert-butoxycarbonylamino-3,4-dihydro-2,2-dimethyl-2H-1-benzopyran-4-yl)urea]	55 ± 6 µM
CC(C)(C)OC(=O)Nc1ccc2c(c1)C(NC(=O)Nc1ccc(Cl)c(C(F)(F)F)c1)CC(C)(C)O2 (racemic) [Example 33, R/S-N-4-chloro-3-trifluoromethylphenyl-N'-(6-tert-butoxycarbonylamino-3,4-dihydro-2,2-dimethyl-2H-1-benzopyran-4-yl)urea]	22 ± 1 µM
CC(C)(C)OC(=O)Nc1ccc2c(c1)C(NC(=O)Nc1ccc(Cl)cc1)CCO2 (racemic) [Example 3, R/S-N-4-chlorophenyl-N'-(6-tert-butoxycarbonylamino-3,4-dihydro-2H-1-benzopyran-4-yl)urea]	> 70 µM
CC(C)(C)OC(=O)Nc1ccc2c(c1)C(NC(=O)Nc1ccccc1C#N)CCO2 (racemic) [Example 4, R/S-N-2-cyanophenyl-N'-(6-tert-butoxycarbonylamino-3,4-dihydro-2H-1-benzopyran-4-yl)urea]	54 ± 6 µM
CC(C)(C)OC(=O)Nc1ccc2c(c1)C(NC(=O)Nc1cccc(Cl)c1)CCO2 (racemic) [Example 2, R/S-N-3-chlorophenyl-N'-(6-tert-butoxycarbonylamino-3,4-dihydro-2H-1-benzopyran-4-yl)urea]	25 ± 3 µM
